Data published in patent publication US5750354A, “Lipoxin transport system and uses therefor” (priority 1994, dated 1998).

How the values were obtained:
lipoxin transport system = test: Irreversible inhibition of [3H]LXA4 influx after pretreatment of neutrophils with sulfhydryl-reactive agents; assay type: cell-based, human; conditions: 0.25 mM, pretreatment 30 min at 4° C., washed, influx at 37° C.; listed as NBD-CL
[1] = tested on: H+ +lactate- cotransporter; conditions: cited from earlier work

Structure (SMILES): O=[N+]([O-])c1ccc(Cl)c2nonc12
- % Inhibition of Transport (irreversible) (lipoxin transport system): ~ 20%
- effect on H+ +lactate- cotransport / lactic acid fluxes [1]: completely blocked
